## Yeast mating assay 2: variants of the scFv Ab-95

Target peptide (SARS-CoV-2 spike, HR2 region): PDVDLGDISGINAS

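Library AAYL52 holds single substitutions and randomly drawn double and triple substitutions in the CDRs. In AlphaSeq, yeast of one mating type display the scFv and yeast of the other type display the target. After mating in shaken culture at 30 °C for 16 h, diploids were selected and their barcode pairs sequenced. Read counts were normalised to the haploid input and turned into Kd by a linear fit to BCL2-family pairs of known affinity, for each replicate. There are three technical replicates.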

Ab-95 is the parent antibody, in scFv form: VH, then a (GGGGS)3 linker, then VL. The heavy chain is unchanged in all variants.
VH: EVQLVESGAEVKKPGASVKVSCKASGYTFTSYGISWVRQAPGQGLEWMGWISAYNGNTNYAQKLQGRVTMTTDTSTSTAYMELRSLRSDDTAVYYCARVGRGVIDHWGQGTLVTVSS
VL: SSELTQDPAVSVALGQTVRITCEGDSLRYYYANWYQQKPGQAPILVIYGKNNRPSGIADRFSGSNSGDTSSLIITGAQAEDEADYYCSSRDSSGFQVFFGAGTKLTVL

Each variant is given by its three light chain CDRs, as the data file delimits them; those of the parent are EGDSLRYYYAN, GKNNRPS, SSRDSSGFQVF.
Affinities are written as log10 Kd with Kd in nM; a lower number is a better binder.
"n.d." means that the variant was in the library but no mating with the target was seen in that replicate; the authors take this as a sign of poor binding, and no number exists.
Three control strains display no target. For library AAYL52, 28% of the pairings with them gave a signal, with a median of 3.91 and one signal in twenty below 2.90, so weak values seen in few replicates may be background. Also given: how often the same scFv was detected with the empty control strains, with their mean in brackets.

CDR-L1,CDR-L2,CDR-L3,log10 Kd (nM) by replicate,control signals
EGDSLHYYYVN,GKNNRPS,SSSDSSGFQVF,4.94 n.d. n.d.,3 of 9 (3.48)
EGDSLRYRYAN,GDNNRPS,SSRDSSGFNVF,0.90 0.93 0.24,5 of 9 (3.83)
TGDSLRYYYYN,GKNNRPS,SSRDSSGFWVF,4.85 5.72 4.35,5 of 9 (4.08)
EGDSLRYGCAN,GKNNRPS,SSRDSSGFMVF,1.44 1.39 1.00,2 of 9 (4.14)
EVDSLRYYYAN,GKENRPS,SSRDSNGFQVF,3.45 2.59 2.14,2 of 9 (3.78)
LGDSLYYYYAN,GKNNRPV,SSRDSSGFQVF,3.85 3.75 4.58,3 of 9 (4.49)
EGDSLRGYYAN,GKNNRPS,SSRDSSGFQIP,3.14 4.14 3.40,2 of 9 (3.74)
EGDSLRYYYAN,GKWNRPS,SSKDSSGFDVF,n.d. n.d. n.d.,0 of 9
EGDSLRYYDAL,GKNNRPS,SSRDSSGFQVF,2.99 3.97 4.16,3 of 9 (3.94)
EGDSLRYYYAN,TKNNRPS,SSRRSSGFQVT,n.d. 3.52 n.d.,1 of 9 (3.10)
EGDSLRYYFAN,GKNNRPS,HSRDSSGMQVF,2.88 3.11 3.13,3 of 9 (3.53)
QGDSLRVYYAN,GKNCRPS,SSRDSSGFQVF,4.38 n.d. n.d.,2 of 9 (2.92)
EGDRLRYYYAN,GKNERPI,SSRDSSGFQVF,2.77 2.20 1.54,3 of 9 (4.03)
EGDIWRYYYAN,GKNVRPS,SSRDSSGFQVF,n.d. n.d. n.d.,0 of 9
EFDSLRVYYAN,GRNNRPS,SSRDSSGFQVF,3.88 3.73 3.35,5 of 9 (4.08)
EGDKLSYYYSN,GKNNRPS,SSRDSSGFQVF,4.88 n.d. 4.44,1 of 9 (5.02)
EGDSLRYYYAN,GKNNRPS,SSSDSQGFQEF,4.12 n.d. 4.90,6 of 9 (4.57)
EGDSYRYYYAN,GKNNRPS,YGRDSSGFQVF,4.18 3.22 n.d.,5 of 9 (3.67)
EGDSLRYYYAN,GKNNRPS,ESRHSSGFQVQ,3.39 2.74 3.41,2 of 9 (4.47)
EGDSLVAYYAN,GKSNRPS,SSRDSSGFQVF,4.03 3.86 4.25,3 of 9 (3.80)
EGDSLRYYYAN,GKNVRPP,SSRDSSGFQVF,3.32 3.33 2.56,3 of 9 (4.61)
EGDSLRYYNAN,GWNNNPS,SSRDSSGFQVF,2.72 2.45 1.86,7 of 9 (4.30)
MGDALRDYYAN,GKNNRPS,SSRDSSGFQVF,2.44 2.76 2.39,2 of 9 (3.57)
EGDALRIYYAN,GKNNNPS,SSRDSSGFQVF,4.00 3.51 3.55,2 of 9 (4.41)
EGDSLRYNYAN,GKNNRPS,SSRDSSPFQVF,0.90 0.78 0.35,2 of 9 (3.96)
EGDSLRYYYAN,YKNNRPS,SSRDSWGFQVS,3.02 n.d. n.d.,0 of 9
EGDSLRYYYAN,GKNPRPS,SSRDSSVFNVF,3.11 n.d. n.d.,4 of 9 (3.80)
EGDSLRYYYAN,GKNGRPS,SSNDSSGFQVF,3.18 3.40 2.29,2 of 9 (3.69)
QGKSLRYYYAN,GKHNRPS,SSRDSSGFQVF,3.21 3.77 2.87,6 of 9 (3.62)
EGDSIRYYYAN,GKNNRPS,SSRDSSGFEVF,2.80 2.93 3.14,7 of 9 (4.35)
EGWSLIYYYAN,GKNNRPS,SSCDSSGFQVF,n.d. 3.74 n.d.,3 of 9 (4.04)
EGDSLYYYYAN,GKNNRPS,SSRCSSGFQHF,3.78 4.55 3.38,3 of 9 (3.54)
EGDSLRYYYAN,GKNNRPI,SSRMSSTFQVF,5.63 n.d. n.d.,3 of 9 (3.88)
EGDSLRYWVAN,GINNRPS,SSRDSSGFQVF,3.41 5.63 2.66,4 of 9 (3.93)
EGDSLRDYYAN,GKNNRPS,SSEDSGGFQVF,n.d. n.d. n.d.,2 of 9 (4.32)

Picked from the list: the 4 lowest averages where every replicate gave a value.

CDR-L1,CDR-L2,CDR-L3,log10 Kd (nM) by replicate,control signals
EGDSLRYNYAN,GKNNRPS,SSRDSSPFQVF,0.90 0.78 0.35,2 of 9 (3.96)
EGDSLRYRYAN,GDNNRPS,SSRDSSGFNVF,0.90 0.93 0.24,5 of 9 (3.83)
EGDSLRYGCAN,GKNNRPS,SSRDSSGFMVF,1.44 1.39 1.00,2 of 9 (4.14)
EGDRLRYYYAN,GKNERPI,SSRDSSGFQVF,2.77 2.20 1.54,3 of 9 (4.03)

The measurements come from Engelhart et al. 2022 (doi:10.1038/s41597-022-01779-4) through the FLAb antibody collection.